Data from US20100291236A1, “OSMIUM COMPOUNDS” (THE UNIVERSITY OF WARWICK, priority 2006, published 2010).

Experiment: Acidity (pKa / pKa*) of coordinated water, 1H NMR pH* titration
Settings: D2O, pH* range 2-9
From the text: pKa* calculations. […] The chemical shifts of the arene ring protons were plotted against pH*. The pH* titration curves were fitted to the Henderson-Hasselbalch equation, with the assumption that the observed chemical shifts are weighted averages according to the populations of the protonated and deprotonated species.

[(η^6-p-cym)Os(N-2,4-difluoride-Ph-picolinamide)Cl]PF6 [Compound 8]
pKa* of the aqua adduct: 7.33
